# Reference: patent US20080200454A1, “CARBON-LINKED TETRAHYDRO-PYRAZOLO-PYRIDINE MODULATORS OF CATHEPSIN S” (priority 2007, published 2008)
# By UniProt entry, the sequences of proteins in these tests, tags left out. Residues count along the entry.
# UniProt P25774, 115-331: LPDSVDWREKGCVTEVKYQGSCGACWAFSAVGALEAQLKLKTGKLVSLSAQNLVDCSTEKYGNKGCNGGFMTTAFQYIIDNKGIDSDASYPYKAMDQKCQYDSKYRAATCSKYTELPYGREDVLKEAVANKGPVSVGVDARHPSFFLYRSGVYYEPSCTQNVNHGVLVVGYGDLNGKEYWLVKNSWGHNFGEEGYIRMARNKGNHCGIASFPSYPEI
# Molecular target: Recombinant human cathepsin S (CatS) (Homo sapiens, UniProt P25774)
# Experiment: Recombinant human cathepsin S (CatS) inhibition assay, fluorogenic substrate Z-Valine-Valine-Arginine-AMC;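 also: Baculovirus-expressed CatS in pH 5.0 sodium acetate buffer with DTT and NaCl, fluorescence read each minute over 20 min, inhibition derived from rate slope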
# Details: not given
row,IC50,SMILES
1,0.13 µM,"CS(=O)(=O)N1CCc2c(c(-c3ccc(C(F)(F)F)c(C#Cc4ccc(Cl)cc4)c3)nn2CC(O)CN2CCC3(CCNC3=O)CC2)C1 (stereo not shown) [Example 118, 8-(3-{3-[3-(4-Chloro-phenylethynyl)-4-trifluoromethyl-phenyl]-5-methanesulfonyl-4,5,6,7-tetrahydro-pyrazolo[4,3-c]pyridin-1-yl}-2-hydroxy-propyl)-2,8-diaza-spiro[4.5]decan-1-one]"
2,0.13 µM,"CC1COCCN1CCCn1nc(-c2ccc(Cl)c(C#Cc3ccc(CNCc4ccc(Cl)cc4)cc3)c2)c2c1CCN(C(=O)C(N)=O)C2 (stereo not shown) [Example 621, 2-(3-{4-Chloro-3-[(4-{[(4-chlorobenzyl)amino]methyl}phenyl)ethynyl]phenyl}-1-[3-(3-methylmorpholin-4-yl)propyl]-1,4,6,7-tetrahydro-5H-pyrazolo[4,3-c]pyridin-5-yl)-2-oxoacetamide]"

# Same assay, conditions: CatS IC50
row,SMILES,IC50
1,"CS(=O)(=O)N1CCc2c(c(-c3ccc(Cl)c(C#Cc4cccc(O)c4)c3)nn2CCCN2CCOCC2)C1 [Example 27, 3-{2-Chloro-5-[5-methanesulfonyl-1-(3-morpholin-4-yl-propyl)-4,5,6,7-tetrahydro-1H-pyrazolo[4,3-c]pyridin-3-yl]-phenylethynyl}-phenol]",1.01 µM
2,"NC(=O)N1CCc2c(c(-c3ccc(Cl)c(C#Cc4ccc(COCC5CCNCC5)cc4)c3)nn2CCCN2CCSCC2)C1 [Example 163, 3-{4-Chloro-3-[(4-{[(piperidin-4-ylmethyl)oxy]methyl}phenyl)ethynyl]phenyl}-1-(3-thiomorpholin-4-ylpropyl)-1,4,6,7-tetrahydro-5H-pyrazolo[4,3-c]pyridine-5-carboxamide]",0.13 µM
3,"CS(=O)(=O)N1CCc2c(c(-c3ccc(Cl)c(C#Cc4ccc5c(c4)CN[C@H](C(N)=O)C5)c3)nn2CCCN2CCOCC2)C1 [Example 195, (3S)-7-({2-Chloro-5-[5-(methylsulfonyl)-1-(3-morpholin-4-ylpropyl)-4,5,6,7-tetrahydro-1H-pyrazolo[4,3-c]pyridin-3-yl]phenyl}ethynyl)-1,2,3,4-tetrahydroisoquinoline-3-carboxamide]",0.13 µM
4,"CC(NCc1ccc(C#Cc2cc(-c3nn(CCCN4CCOCC4)c4c3CN(S(C)(=O)=O)CC4)ccc2Cl)cc1)c1ccccc1 (stereo not shown) [Example 210, N-{[4-({2-Chloro-5-[5-(methylsulfonyl)-1-(3-morpholin-4-ylpropyl)-4,5,6,7-tetrahydro-1H-pyrazolo[4,3-c]pyridin-3-yl]phenyl}ethynyl)phenyl]methyl}-1-phenylethanamine]",0.19 µM
5,"CS(=O)(=O)N1CCc2c(c(-c3ccc(Cl)c(C#Cc4ccc(CNCc5ccc(Cl)cc5)cc4)c3)nn2C[C@@H](O)CN2CCSCC2)C1 [Example 261, (S)-1-[3-(4-Chloro-3-{4-[(4-chloro-benzylamino)-methyl]-phenylethynyl}-phenyl)-5-methanesulfonyl-4,5,6,7-tetrahydro-pyrazolo[4,3-c]pyridin-1-yl]-3-thiomorpholin-4-yl-propan-2-ol]",0.13 µM
6,"CS(=O)(=O)N1CCc2c(c(-c3ccc(Cl)c(CCc4ccc(CNCc5ccc(Cl)cc5)cc4)c3)nn2CCCN2CCOCC2)C1 [Example 319, 1-[4-(2-{2-Chloro-5-[5-(methylsulfonyl)-1-(3-morpholin-4-ylpropyl)-4,5,6,7-tetrahydro-1H-pyrazolo[4,3-c]pyridin-3-yl]phenyl}ethyl)phenyl]-N-[(4-chlorophenyl)methyl]methanamine]",0.13 µM
7,"C[C@@H]1CN(CCCn2nc(-c3ccc(Cl)c(C#Cc4ccc(CNCc5ccc(Cl)cc5)cc4)c3)c3c2CCN(S(C)(=O)=O)C3)C[C@H](C)O1 [Example 387, 1-[4-({2-Chloro-5-[1-{3-[(2R,6S)-2,6-dimethylmorpholin-4-yl]propyl}-5-(methylsulfonyl)-4,5,6,7-tetrahydro-1H-pyrazolo[4,3-c]pyridin-3-yl]phenyl}ethynyl)phenyl]-N-[(4-chlorophenyl)methyl]methanamine]",0.13 µM
8,"NC(=O)N1CCc2c(c(-c3ccc(Cl)c(C#Cc4ccc(CNCc5ccc(F)cc5)cc4)c3)nn2CCCN2CCSCC2)C1 [Example 544, 3-(4-Chloro-3-{[4-({[(4-fluorophenyl)methyl]amino}methyl)phenyl]ethynyl}phenyl)-1-(3-thiomorpholin-4-ylpropyl)-1,4,6,7-tetrahydro-5H-pyrazolo[4,3-c]pyridine-5-carboxamide]",0.13 µM
